The values that follow come from patent US7868032B2.

Protein sequences, listed by entry. Tags and fused reporters are not part of them.
UniProt P43088, whole entry: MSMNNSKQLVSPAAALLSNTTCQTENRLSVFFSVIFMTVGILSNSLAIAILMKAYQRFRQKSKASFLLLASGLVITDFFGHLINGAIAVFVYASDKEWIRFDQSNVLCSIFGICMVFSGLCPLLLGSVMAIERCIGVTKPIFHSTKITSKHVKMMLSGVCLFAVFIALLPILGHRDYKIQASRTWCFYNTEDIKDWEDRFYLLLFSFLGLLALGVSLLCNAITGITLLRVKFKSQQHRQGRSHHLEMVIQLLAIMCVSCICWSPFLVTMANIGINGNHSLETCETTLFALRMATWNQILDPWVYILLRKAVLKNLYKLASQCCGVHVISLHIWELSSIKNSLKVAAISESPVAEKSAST
UniProt Q13258, whole entry: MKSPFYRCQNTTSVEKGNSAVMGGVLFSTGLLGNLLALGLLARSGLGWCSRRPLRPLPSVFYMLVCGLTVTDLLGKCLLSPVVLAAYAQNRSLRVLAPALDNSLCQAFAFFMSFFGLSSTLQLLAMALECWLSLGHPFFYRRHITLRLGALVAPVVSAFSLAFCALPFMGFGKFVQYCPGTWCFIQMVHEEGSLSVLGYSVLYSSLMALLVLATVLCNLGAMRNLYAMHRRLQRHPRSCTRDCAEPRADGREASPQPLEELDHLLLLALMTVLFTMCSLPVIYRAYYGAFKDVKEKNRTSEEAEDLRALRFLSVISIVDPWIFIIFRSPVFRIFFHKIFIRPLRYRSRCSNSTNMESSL
UniProt P21731, whole entry: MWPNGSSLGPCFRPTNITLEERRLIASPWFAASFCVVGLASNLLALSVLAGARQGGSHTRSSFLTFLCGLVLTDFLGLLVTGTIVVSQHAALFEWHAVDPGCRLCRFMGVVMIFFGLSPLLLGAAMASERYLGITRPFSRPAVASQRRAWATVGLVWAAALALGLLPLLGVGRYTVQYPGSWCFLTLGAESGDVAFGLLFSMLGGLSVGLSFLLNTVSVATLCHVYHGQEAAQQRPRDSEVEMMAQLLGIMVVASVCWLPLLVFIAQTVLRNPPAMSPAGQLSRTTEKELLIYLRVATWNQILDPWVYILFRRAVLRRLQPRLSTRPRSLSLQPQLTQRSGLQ
UniProt P35408, whole entry: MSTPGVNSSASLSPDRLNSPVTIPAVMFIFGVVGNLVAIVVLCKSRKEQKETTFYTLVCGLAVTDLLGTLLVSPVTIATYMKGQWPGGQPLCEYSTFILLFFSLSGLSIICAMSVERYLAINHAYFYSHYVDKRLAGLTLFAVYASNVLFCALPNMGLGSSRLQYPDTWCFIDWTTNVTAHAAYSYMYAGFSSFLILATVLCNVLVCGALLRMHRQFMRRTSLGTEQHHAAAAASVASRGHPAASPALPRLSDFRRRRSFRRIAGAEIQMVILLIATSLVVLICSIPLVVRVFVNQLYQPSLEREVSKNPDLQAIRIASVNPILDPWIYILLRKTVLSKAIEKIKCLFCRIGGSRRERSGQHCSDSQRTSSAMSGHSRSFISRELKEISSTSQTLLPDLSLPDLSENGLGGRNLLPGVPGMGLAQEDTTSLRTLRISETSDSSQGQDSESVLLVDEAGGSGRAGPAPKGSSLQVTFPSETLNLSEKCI

Experiment [1] concerns Pamide (prostamide receptor), Cat Iris. Briefly: Feline iris sphincter contraction, antagonism of prostamide. The following applies: read-out: Kb Pamide Cat Iris; isolated feline iris; antagonist given 30 minutes before agonist curve; NA = inactive. The procedure:
(§1) The test systems employed included the isolated feline iris as a key preparation since both prostamides (prostaglandin ethanolamides) and prostanoid FP receptor agonists potently elicit a contractile response in this tissue (Woodward et al., 2003; Matias et al., 2004). Activity at human prostanoid receptors was determined using recombinant receptors stably transfected into HEK-293 EBNA cells, using chimeric G proteins to enable Ca^2+ signal responses to all receptor subtypes, as previously described (Woodward et al., 2003: Matias et al, 2004)
(§2) Claas A laboratory bred cats were housed communally in USDA and AAALAC approved facilities, with standards that exceeded those for enrichment and group housing. Water was available ad libitum and food was standard cat nutritional diet. They were kept on a 12 hr light-dark cycle. They (96) were euthanized by i.v. overdose of sodium pentobarbital (Anthony, Arcadia, Calif.). The eyes were enucleated immediately thereafter and placed on ice. Two eyes provided a total of four iridial preparations. The iris sphincter was mounted vertically under 50- to 100 mg tension in a jacketed 10 ml organ bath. Smooth muscle tension of the isolated iris sphincter was measured isometrically with force displacement transducers (Grass FT-03) and recorded on a Grass polygraph (Model 7). The organ baths contained Krebs' solution maintained at 37° C. by a heat exchanger and circulating pump. […] Activity was manifest as contractile responses and measured as such. […]
The feline iris experiments were designed so that a direct, four-way comparison for antagonist vs. prostamide, vehicle vs. prostamide, antagonist vs. corresponding PG, and vehicle vs. corresponding PG was provided in tissue preparations obtained from a single animal. […] The response to PGF2α10^−7M was determined at the beginning and end of each dose response curve, with appropriate wash-out, and responses were calculated as % of this reference contraction.

The target of experiment [2] is human recombinant FP receptor (Homo sapiens, UniProt P43088). Briefly: Ca2+ signal (FLIPR), human recombinant FP receptor in HEK-293 EBNA cells. The settings on record: for Kb: read-out: Kb FP (h FP), value in brackets, NA = inactive. As to the method: as §1
(§3) The use of chimeric G protein cDNAs allowed responses to Gs and Gi coupled prostanoid receptors to be measured as a Ca^2+ signal, as previously described (Woodward et al., 2003; Matias et al., 2004). Prostanoid DP, EP2, and EP4 receptor cDNAs were co-transfected with chimeric Gqs cDNA containing a haemagglutanin (HA) epitope. The prostanoid EP3 receptor was co-transfected into HEK-293 EBNA cells, using pCEP4 as a vector, with chimeric Gqi-HA. Gqs and Gqi chimeric cDNAs (Molecular Devices, Sunnyvale, Calif.) were cloned into a pCEP4 vector and also selected by using a hygromycin B selection marker. Transfection into HEK-293 EBNA cells was achieved by the FuGENE 6 method. Because Gqs and Gqi contained an HA epitope, protein expression was detected by Western blotting analysis using anti-mouse HA monoclonal antibody and HRP conjugated secondary antibody. For human recombinant EP1, FP, IP, and TP receptors, stable transfectants were obtained as previously described (Woodward et al., 2003; Matias et al., 2004). […]
(§4) Ca^2+ signaling studies were performed using a FLIPR (fluorometric imaging plate reader) instrument. […] Cells were excited with an argon laser at 488 nm and emission was measured through a 510-570 nm band width emission filter (FLIPR, Molecular Devices, Sunnyvale, Calif.). The peak increase in fluorescence intensity was recorded for each well.
(§5) The experimental design for the FLIPR studies was as follows. […] The peak fluorescence change in each well containing drug was expressed relative to the controls. […]

The target of experiment [3] is human recombinant DP receptor (Homo sapiens, UniProt Q13258). Briefly: Ca2+ signal (FLIPR), human recombinant DP receptor in HEK-293 EBNA cells. The following applies: read-out: Kb DP h, NA = inactive. The procedure: as §1
(§6) The use of chimeric G protein cDNAs allowed responses to Gs and Gi coupled prostanoid receptors to be measured as a Ca^2+ signal, as previously described (Woodward et al., 2003; Matias et al., 2004). Prostanoid DP, EP2, and EP4 receptor cDNAs were co-transfected with chimeric Gqs cDNA containing a haemagglutanin (HA) epitope. […] Because Gqs and Gqi contained an HA epitope, protein expression was detected by Western blotting analysis using anti-mouse HA monoclonal antibody and HRP conjugated secondary antibody. […]
(§7) Ca^2+ signaling studies were performed using a FLIPR (fluorometric imaging plate reader) instrument. […] Cells were excited with an argon laser at 488 nm and emission was measured through a 510-570 nm band width emission filter (FLIPR, Molecular Devices, Sunnyvale, Calif.). The peak increase in fluorescence intensity was recorded for each well. […]

The target in experiment [4] is human recombinant TP receptor (Homo sapiens, UniProt P21731). The experiment can be described thus: Ca2+ signal (FLIPR), human recombinant TP receptor in HEK-293 EBNA cells. The following applies: read-out: Kb TP h, NA = inactive. As to the method:
as §1, §3, §4, §5

For another experiment, the system named is FP receptor, Cat Iris. Briefly: Feline iris sphincter contraction, antagonism of corresponding PG (FP). The settings on record: isolated feline iris, value outside brackets, NA = inactive. As to the method: as §1
as §2, with “7).” for “7). The organ baths contained Krebs' solution maintained at 37° C. by a heat exchanger and circulating pump.”

Experiment [5] addresses human recombinant EP4 receptor (Homo sapiens, UniProt P35408). Briefly: Ca2+ signal (FLIPR), human recombinant EP4 receptor in HEK-293 EBNA cells. The settings on record: read-out: Kb EP4 h, NA = inactive. The procedure: as §1, §6, §7

Turning to `CC(C)NC(=O)COc1ccc(F)cc1CC1C2CCC(O2)C1c1nc(C(=O)NCCCCC2CCCCC2)co1` (centres unmarked), the Kb in experiment [1] came to 0.303 µM; in experiment [2] it was 13.1 µM; in experiment [3], 40.9 µM; in experiment [4] it was 0.111 µM.
With `CCNC(=O)COc1ccc(F)cc1CC1C2CCC(O2)C1c1nc(C(=O)NCCCCC2CCCCC2)co1` (centres unmarked), the Kb amounted to 0.236 µM in experiment [1], 37 µM in experiment [5] and 0.016 µM in experiment [4]. In addition, in the experiment on FP receptor, Cat Iris, the “Kb FP Cat Iris” value is given as “NA(NA)”. Also, in experiment [2] (value in brackets, NA = inactive), the “Kb FP (h FP)” value is “NA(NA)”.
Take `CCCNC(=O)COc1ccc(F)cc1CC1C2CCC(O2)C1c1nc(C(=O)NCCCCC2CCCCC2)co1` (centres unmarked): the Kb in experiment [1] came to 0.356 µM; with FP receptor, Cat Iris (read-out: Kb FP Cat Iris), 54 µM; in experiment [2], 33.6 µM; in experiment [5] it was 9.05 µM; in experiment [4], 0.1 µM.
